Source: patent publication US8906933B2, “Dihydropyrimidin-2(1H)-one compounds as neurokinin-3 receptor antagonists” (N30 Pharmaceuticals, Inc., priority 2010, dated 2014)

Sequences of proteins named here, by UniProt entry; tags and fusion partners are left off. A change or cut given only in a name is not applied to a line headed by its entry.
UniProt P11766: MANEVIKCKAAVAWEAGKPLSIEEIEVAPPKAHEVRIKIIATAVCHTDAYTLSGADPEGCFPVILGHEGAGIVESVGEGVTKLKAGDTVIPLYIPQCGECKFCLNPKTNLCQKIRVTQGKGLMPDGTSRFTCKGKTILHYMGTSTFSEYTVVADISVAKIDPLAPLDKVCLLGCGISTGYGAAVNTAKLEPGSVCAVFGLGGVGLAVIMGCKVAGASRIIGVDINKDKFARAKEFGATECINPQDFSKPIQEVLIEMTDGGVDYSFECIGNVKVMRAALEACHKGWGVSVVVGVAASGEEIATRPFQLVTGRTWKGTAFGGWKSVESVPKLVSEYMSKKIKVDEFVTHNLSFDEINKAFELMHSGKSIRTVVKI

Molecular target: GSNOR (Homo sapiens (Human), UniProt P11766)
Assay: GSNOR IC50 (method in incorporated applications)
Assay type: biochemical

IC50: 16 nM
SMILES: CCOc1cc([C@@H]2NC(=O)NC(c3cccnc3)=C2c2ccsc2)cc([N+](=O)[O-])c1O [4-(3-ethoxy-4-hydroxy-5-nitrophenyl)-6-(pyridin-3-yl)-5-(thiophen-3-yl)-3,4-dihydropyrimidin-2(1H)-one]
